Measured values taken from ChEMBL document CHEMBL6096636 (Bioorg Med Chem, 2024).

Legend:
Format in all cases: functional
[1] = Resistance index, ratio of IC50 for chloroquine resistant Plasmodium falciparum clinical isolate GB4 to IC50 for erythrocytic stage of Plasmodium falciparum 3D7
[2] = Resistance index, ratio of IC50 for quinine and chloroquine resistant Plasmodium falciparum clinical isolate C2A to IC50 for erythrocytic stage of Plasmodium falciparum 3D7
[3] = Resistance index, ratio of IC50 for sulfadoxine-pyrimethamine and mefloquine resistant Plasmodium falciparum clinical isolate CP286 to IC50 for erythrocytic stage of Plasmodium falciparum 3D7

`Cc1ccc2c(CN[C@H]3CC[C@@H](Nc4ncc(C(=O)NO)cn4)CC3)cn(C)c2c1.Cl` showed a Ratio IC50 [1] of 2.6, a Ratio IC50 [2] of 2.2 and a Ratio IC50 [3] of 2.5.

Work on `CCc1nc(N)nc(N)c1-c1ccc(Cl)cc1` [PYRIMETHAMINE] yielded a Ratio IC50 [3] of over 2020.

`COc1ccc2c(CN[C@H]3CC[C@@H](Nc4ncc(C(=O)NO)cn4)CC3)cn(C)c2c1.Cl` gave a Ratio IC50 [1] of 2.4, a Ratio IC50 [2] of 2 and a Ratio IC50 [3] of 3.4.
